# Assay results: article PMC7424261
# B1: NmDAPDH (meso-diaminopimelate dehydrogenase from Numidum massiliense) (Numidum massiliense) (protein)
# chain: MSNVYNVAVVGYGNIGKYAVQAIDAAPDMQLAGVVRRASSAAKDTPPELVGRRVVHDIRDLEQVDVAILAAPTRTIPAYARDVLSLGIHTVDSYDIHGELANLRRELDDVSKKNDSVAIISAGWDPGTDSMIRGMLEFMAPGGLTYTNFGPGMSMGHSVAVKAIDGVKDALSLTIPLGTSIHRRMVYVELEAGADFETVKKAILADPYFVNDETHVTQVPNVQQLVNVGHGVSMERRGVSGATHNQLFTFEMRINNPALTSQVLVAAARATFKQQPGAYTMIEVPVIDYLPGDRDDIIRRLV
# What was measured:
# purified protein [1] = substrate: N[C@H](CCC[C@H](N)C(=O)O)C(=O)O; test: purified protein; details: oxidative deamination, 1.25 mM NADP+ (standard assay), 200 mM glycine-KOH pH 10.5, meso-DAP 0.5-15 mM
# purified protein [2] = substrate: NC(=O)c1ccc[n+]([C@@H]2O[C@H](COP(=O)(O)OP(=O)(O)OC[C@H]3O[C@@H](n4cnc5c(N)ncnc54)[C@H](OP(=O)(O)O)[C@@H]3O)[C@@H](O)[C@H]2O)c1; test: purified protein; details: oxidative deamination, 10 mM meso-DAP, 200 mM glycine-KOH pH 10.5, NADP+ 0.015-1.25 mM, varied: cofactor
protein,measurement,setting,value
B1,Km,purified protein [1],3340 µM
same,kcat,purified protein [1],638 s⁻¹
same,kcat/Km,purified protein [1],192000 M⁻¹ s⁻¹
same,Km,purified protein [2],302 µM
same,kcat,purified protein [2],792 s⁻¹
same,kcat/Km,purified protein [2],2.62e+06 M⁻¹ s⁻¹
